Protein sequences, listed by entry. Tags and fused reporters are not part of them. Residues count along the entry.
UniProt P0ACJ8, 2-210, added parts left off: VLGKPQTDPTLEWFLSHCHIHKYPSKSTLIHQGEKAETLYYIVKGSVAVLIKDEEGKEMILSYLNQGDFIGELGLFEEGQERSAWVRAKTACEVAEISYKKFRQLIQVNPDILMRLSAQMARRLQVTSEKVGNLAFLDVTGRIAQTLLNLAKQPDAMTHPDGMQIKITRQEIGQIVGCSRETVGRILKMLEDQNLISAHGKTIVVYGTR

According to US7371745B2, “Bis-transition-metal-chelate probes” (Rutgers, The State University of New Jersey, priority 2002, dated 2008):

Experiments:
(CAP-His6)-DNA^F complex = (CAP-His6)-DNA^F complex (Escherichia coli, UniProt P0ACJ8); conditions: read-out: equilibrium dissociation constant (KD); 5 nM DNA^F and 50 nM CAP-His6 titrated with 0-3.2 μM probe, buffer C, 25° C.
CAP-His6 = CAP-His6 (Escherichia coli, UniProt P0ACJ8); conditions: read-out: equilibrium dissociation constant (KD); 50 nM probe titrated with 0-3 μM CAP-His6, buffer C, 25° C.

Substance	Kd ((CAP-His6)-DNA^F complex) [nM]	Kd (CAP-His6) [nM]
(Ni^2+-NTA)2-Cy3	900	1000
(Ni^2+-NTA)2-Cy5	300	400
